ChEMBL document CHEMBL4257577

How the values were obtained:
SH-SY5Y [1] = experiment: Cytotoxicity against human SH-SY5Y cells assessed as reduction in cell viability up to 800 uM after 24 hrs by MTS assay
[2] = Permeability of the compound at 100 uM after 3 to 6 hrs by PAMPA assay
[3] = Dissociation constant, pKa of the compound at pH 4.6 to 11.1 by spectrophotometry
[4] = Dissociation constant, pKa of the compound at pH 4.6 to 10.3 by spectrophotometry
[5] = Dissociation constant, pKa of the compound at pH 6 to 9.5 by spectrophotometry
[6] = Dissociation constant, pKa of the compound at pH 4.6 to 9.2 by spectrophotometry
SH-SY5Y [7] = experiment: Cytotoxicity against human SH-SY5Y cells assessed as reduction in cell viability after 24 hrs by MTS assay

Row | Compound | Activity (SH-SY5Y [1]) | permeability [2] [×10⁻⁶ cm/s] | further results
1 | NC(=O)c1cc[n+](C/C=C/C[n+]2ccc(/C=N/O)cc2)cc1.[Br-].[Br-] | Non-Toxic | 0.45 | 
2 | C[n+]1ccccc1/C=N/O.[I-] | Non-Toxic | 0.36 | 
3 | Cl.NC(=O)c1cc[n+](COCN2C=CC=CC2=CN=O)cc1.[Cl-] | Non-Toxic |  | 
4 | NC(=O)c1cc[n+](CCC[n+]2ccc(/C=N/O)cc2)cc1.[Br-].[Br-] | Non-Toxic | 0.33 | 
5 | NC(=O)c1cc[n+](CCC[n+]2ccc(/C=N/O)c(Cl)c2)cc1.[Br-].[Br-] | Non-Toxic | 1.4 | pKa [3]: 7.57
6 | NC(=O)c1cc[n+](CCC[n+]2cc(Cl)c(/C=N/O)c(Cl)c2)cc1.[Br-].[Br-] | Non-Toxic | 1.73 | pKa [4]: 7.53
7 | NC(=O)c1cc[n+](CCCC[n+]2ccc(/C=N/O)cc2)cc1.[Br-].[Br-] | Non-Toxic | 0.34 | pKa [5]: 8.44
8 | NC(=O)c1cc[n+](C/C=C/C[n+]2ccc(/C=N/O)c(Cl)c2)cc1.[Br-].[Br-] |  | 2.6 | pKa [6]: 7.6
9 | NC(=O)c1cc[n+](C/C=C/C[n+]2cc(Cl)c(/C=N/O)c(Cl)c2)cc1 |  |  | IC50 (SH-SY5Y [7]): 30 µM
10 | NC(=O)c1cc[n+](C/C=C/C[n+]2cc(Cl)c(/C=N/O)c(Cl)c2)cc1.[Br-].[Br-] |  | 2.21 | pKa [6]: 7.55
11 | NC(=O)c1cc[n+](CCCC[n+]2cc(Cl)c(/C=N/O)c(Cl)c2)cc1.[Br-].[Br-] | Non-Toxic | 1.4 | pKa [4]: 7.66
12 | NC(=O)c1cc[n+](CCCC[n+]2ccc(/C=N/O)c(Cl)c2)cc1.[Br-].[Br-] | Non-Toxic | 1 | pKa [4]: 7.68
